Earlier results on 32 molecules are cited in PubChem BioAssay AID1811.

The term Kd denotes the concentration at which binding is half-saturated. What is called Ki is a dissociation constant, usually derived from enzyme kinetics or from competition with a known ligand. The IC50 is the concentration at which inhibition is half-maximal.

What all share (experiment): PubChem AID 1811
In data set [1] the target is nadph-flavin oxidoreductase. The conditions noted are these: PDB complex binding affinities from literature; Kd when reported.
In a further data set the target is Polycomb protein Scm. The settings on record: PDB complex binding affinities from literature; Kd when reported.
In a further data set the target is phospholipase a2. The settings on record: PDB complex binding affinities from literature; Kd when reported.
The target in a further data set is carboxypeptidase a. The settings on record: PDB complex binding affinities from literature; Ki when reported.
The next data set addresses bruton's tyrosine kinase. The conditions noted are these: PDB complex binding affinities from literature; Kd when reported.
The target of data set [2] is dual adaptor of phosphotyrosine and 3 phosphoinositides. The conditions noted are these: PDB complex binding affinities from literature; Kd when reported.
For a further data set, the target named is tyrosine kinase btk. The settings on record: PDB complex binding affinities from literature; Kd when reported.
For the next data set, the target named is phosphoglycerate kinase. The settings on record: PDB complex binding affinities from literature; Ki when reported.
In data set [3] the target is Gag-Pol polyprotein (Pr160Gag-Pol). The settings on record: PDB complex binding affinities from literature; Kd when reported.
A further data set deals with alkaline phosphatase. The settings on record: PDB complex binding affinities from literature; Ki when reported.
The next data set concerns the target beta-lactamase ctx-m-9. The settings on record: PDB complex binding affinities from literature; Ki when reported.
In another data set the target is beta-lactamase tem. The conditions noted are these: PDB complex binding affinities from literature; Ki when reported.
Data set [4] addresses heat shock protein 90 alpha. The settings on record: PDB complex binding affinities from literature; IC50 when reported.
Another data set has as its target thermolysin. The settings on record: PDB complex binding affinities from literature; Ki when reported.
Another data set concerns the target 2-enoyl-coa hydratase. The conditions noted are these: PDB complex binding affinities from literature; Ki when reported.
For data set [5], the target named is Serine/threonine-protein kinase PLK1. The settings on record: PDB complex binding affinities from literature; IC50 when reported.
For a further data set, the target named is glutamate racemase. The conditions noted are these: PDB complex binding affinities from literature; Ki when reported.
Data set [6] has as its target Pulmonary surfactant-associated protein D. The settings on record: PDB complex binding affinities from literature; IC50 when reported.
The target in data set [7] is protein-tyrosine phosphatase 1b. The settings on record: PDB complex binding affinities from literature; Ki when reported.
Another data set deals with 1H61 A. The settings on record: PDB complex binding affinities from literature; Kd when reported.
In another data set the target is calpain. The conditions noted are these: PDB complex binding affinities from literature; Ki when reported.
The target in data set [8] is orotidine 5'-monophosphate decarboxylase. The settings on record: PDB complex binding affinities from literature; Ki when reported.
In another data set the target is isocitrate dehydrogenase. The settings on record: PDB complex binding affinities from literature; Ki when reported.
The next data set addresses pol polyprotein. The conditions noted are these: PDB complex binding affinities from literature.
The target in data set [9] is maltose-binding periplasmic protein. The conditions noted are these: PDB complex binding affinities from literature; Kd when reported.
The target of another data set is maltoporin. The settings on record: PDB complex binding affinities from literature; Kd when reported.
A further data set concerns the target sucrose-specific porin. The conditions noted are these: PDB complex binding affinities from literature; Kd when reported.
The target in data set [10] is retinoic acid receptor rxr-alpha. The settings on record: PDB complex binding affinities from literature; Ki when reported.
A further data set has as its target serum albumin. The settings on record: PDB complex binding affinities from literature; Kd when reported.
The target of data set [11] is trp rna-binding attenuation protein. The conditions noted are these: PDB complex binding affinities from literature; Kd when reported.
The target of the next data set is avidin. The settings on record: PDB complex binding affinities from literature; Kd when reported.
The target of the next data set is metallo-beta-lactamase. The conditions noted are these: PDB complex binding affinities from literature; Ki when reported.
In a further data set the target is hiv-1 integrase. The settings on record: PDB complex binding affinities from literature; IC50 when reported.
Data set [12] addresses methionine aminopeptidase. The settings on record: PDB complex binding affinities from literature; Ki when reported.

As for `Cc1cc2nc3c(=O)[nH]c(=O)nc-3n(CC(O)[C@H](O)[C@H](O)COP(=O)(O)O)c2cc1C` (some centres not stated), in [1], the equilibrium dissociation constant (Kd) is 0.17 µM.

Turning to `CNCCCC[C@H](N)C(=O)O`, the Kd on Polycomb protein Scm was 2500 µM.

Regarding `CCCC[C@H]1C(=O)N(c2ccccc2)N(c2ccc(O)cc2)C1=O`, the equilibrium dissociation constant (Kd) at phospholipase a2 was 0.064 µM.

As to `O=C(O)C[C@@H](Cc1ccccc1)C(=O)O`, the Ki on carboxypeptidase a was 0.45 µM.

Regarding `O=P(O)(O)OC1[C@H](O)[C@H](OP(=O)(O)O)C(OP(=O)(O)O)[C@H](OP(=O)(O)O)[C@H]1O` (some centres not stated), the Kd was 0.087 µM at bruton's tyrosine kinase, 0.043 µM in data set [2] and 0.04 µM at tyrosine kinase btk.

Regarding `Nc1ncnc2c1ncn2[C@@H]1O[C@H](COP(=O)(O)OP(=O)(O)C(F)(F)CCCC(F)(F)P(=O)(O)O)[C@@H](O)[C@H]1O`, at phosphoglycerate kinase, the inhibitory constant (Ki) was 6 µM.

As to `COC(=O)N[C@H](C(=O)N[C@@H](Cc1ccccc1)[C@@H](O)CN(Cc1ccc(-c2ccccn2)cc1)NC(=O)[C@@H](NC(=O)OC)C(C)(C)C)C(C)(C)C`, the Kd in data set [3] was 0.035 nM.

Take `O=C(O)CP(=O)(O)O`: on alkaline phosphatase, the inhibition constant Ki was 5500 µM.

As for `CCOc1ccc2ccccc2c1C(=O)N[CH2][Al]`, the Ki is 1.2 µM at beta-lactamase ctx-m-9 and 1.4 µM at beta-lactamase tem.

As to `CC(C)NCCCn1c(Sc2cc3c(cc2I)OCO3)nc2c(N)ncnc21`, the IC50 in data set [4] is 0.05 µM.

With `O=C(O)CNC(=O)[C@@H](CS)Cc1ccccc1`, the inhibition constant (Ki) on thermolysin was 1.8 µM.

In the case of `CC(=O)CC(=O)SCCNC(=O)CCNC(=O)[C@H](O)C(C)(C)COP(=O)(O)OP(=O)(O)OC[C@H]1O[C@@H](n2cnc3c(N)ncnc32)[C@H](O)[C@@H]1OP(=O)(O)O`, at 2-enoyl-coa hydratase, the Ki was 1.6 µM.

As for `CN1CCN(c2ccc(C(=O)Nc3n[nH]c4c3CN(C(=O)Cc3cccs3)C4)cc2)CC1`, the IC50 in [5] was 0.44 µM.

For the molecule `NC(=O)CC[C@@H](N)C(=O)O`, the Ki at glutamate racemase is 50000 µM.

With `O=P(O)(O)OC1[C@H](O)[C@H](O)C(O)[C@H](O)[C@H]1O` (some centres not stated), the half-inhibitory concentration (IC50) in data set [6] was 1400 µM.

For the molecule `O=C(O)C(=O)Nc1ccccc1C(=O)O`, in [7], the Ki was 23 µM.

Take `C[C@]12C=CC(=O)C=C1CC[C@@H]1[C@@H]2C(=O)C[C@@]2(C)[C@H]1CC[C@]2(O)[C@@H](O)C=O`: the dissociation constant (Kd) at 1H61 A was 13 µM.

As for `O=C(O)[C@@H](S)Cc1ccccc1`, the Ki on calpain was 0.3 µM.

With `O=c1cnn([C@@H]2O[C@H](COP(=O)(O)O)[C@@H](O)[C@H]2O)c(=O)[nH]1`, in [8], the Ki was 0.064 µM.

`O=C(O)C[C@H](C(=O)O)[C@@H](O)C(=O)O`: the Ki on isocitrate dehydrogenase is 189 µM.

For `CCCC[C@H](NC(=O)[C@H](C)NC(=O)[C@H](CCC(=O)O)NC(=O)[C@H](Cc1ccccc1)NC[C@H](CC(C)C)NC(=O)[C@@H](NC(=O)[C@@H](N)CCCN=C(N)N)C(C)C)C(N)=O`, on pol polyprotein (Ki when reported), the inhibitory constant (Ki) is 0.024 µM.

Consider `OC[C@@H](O)[C@@H](O[C@H]1O[C@H](CO)[C@@H](O[C@H]2O[C@H](CO)[C@@H](O[C@H]3O[C@H](CO)[C@@H](O)[C@H](O)[C@H]3O)[C@H](O)[C@H]2O)[C@H](O)[C@H]1O)[C@H](O)[C@@H](O)CO`, for which the Kd in data set [9] was 8 µM.

In the case of `CC(C)CN(C[C@@H](O)[C@H](Cc1ccccc1)NC(=O)O[C@H]1CCOC1)S(=O)(=O)c1ccc(N)cc1`, the Kd at pol polyprotein (Kd when reported) is 0.002 µM.

Take `OC[C@H]1O[C@@](CO)(O[C@H]2O[C@H](CO)[C@@H](O)[C@H](O)[C@H]2O)[C@@H](O)[C@@H]1O`: the Kd at maltoporin is 15000 µM; at sucrose-specific porin, 50000 µM.

Turning to `Cc1oc(-c2ccccc2)nc1CCOc1ccc(C[C@H](Nc2ccccc2C(=O)c2ccccc2)C(=O)O)cc1`, the Ki in [10] is 0.001 µM.

As for `CCCCC/C=C\C/C=C\C/C=C\C/C=C\CCCC(=O)O`, the Kd on serum albumin was 0.091 µM; in data set [11], 4.4 µM.

Regarding `Nc1nc2c(ncn2[C@H]2C[C@H](O)[C@@H](CO)O2)c(=O)[nH]1`, on avidin, the equilibrium dissociation constant (Kd) is 205 µM.

As to `OC1C(O)C(O)C(O)C(O)C1O` (configuration not stated), in [6], the IC50 was 5700 µM.

On to `O=S(=O)(O)CCN1CCOCC1`, for which the inhibition constant (Ki) at metallo-beta-lactamase was 23000 µM.

Turning to `CC(C)C[C@H](NP(=O)(O)O[C@@H]1O[C@@H](C)[C@H](O)[C@@H](O)[C@H]1O)C(=O)N[C@@H](Cc1c[nH]c2ccccc12)C(=O)O`, the Ki on thermolysin is 0.028 µM.

For `CC(=O)Nc1cc(S(=O)(=O)O)cc2cc(S(=O)(=O)O)cc(O)c12`, the IC50 at hiv-1 integrase was 800 µM.

As for `c1ccc2[nH]c(-c3cscn3)nc2c1`, the Ki in [12] was 0.4 µM.
